Measurements published in PubChem BioAssay (NCI).
The list shows a part of the results, in another mix than the full data.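 Single-dose data. Exposure time 48 hours. Values below 10 considered active.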 Activity calls are given as the source filed them.

What was measured:
Experiment in all cases: NCI-60 one-dose screen, 48 h (100 = growth as untreated, 0 = no growth, -100 = all killed)
DU-145 prostate = details: 10 µM unless noted
K-562 leukemia = details: 10 µM unless noted
MALME-3M melanoma = details: 10 µM unless noted
MDA-MB-231 breast = details: 10 µM unless noted
SF-268 CNS = details: 10 µM unless noted
SF-295 CNS = details: 10 µM unless noted
SF-539 CNS = details: 10 µM unless noted
UACC-257 melanoma = details: 10 µM unless noted
M14 melanoma = details: 10 µM unless noted
HCT-15 colon = details: 10 µM unless noted
HT29 colon = details: 10 µM unless noted
SNB-75 CNS = details: 10 µM unless noted
SNB-19 CNS = details: 10 µM unless noted
U251 CNS = details: 10 µM unless noted
PC-3 prostate = details: 10 µM unless noted
UACC-62 melanoma = details: 10 µM unless noted
LOX IMVI melanoma = details: 10 µM
SK-MEL-28 melanoma = details: 10 µM unless noted
RXF 393 renal = details: 10 µM unless noted
SK-MEL-5 melanoma = details: 10 µM unless noted

Measured: growth

Fc1cccc(CNCCCl)c1
inactive: DU-145 prostate 113% | K-562 leukemia 112% | MALME-3M melanoma 120% | MDA-MB-231 breast 131% | SF-268 CNS 104% | SF-295 CNS 109% | SF-539 CNS 112% | UACC-257 melanoma 106% | M14 melanoma 111% | HCT-15 colon 106% | HT29 colon 112% | SNB-75 CNS 99.7% | SNB-19 CNS 119% | U251 CNS 103% | PC-3 prostate 99.8% | UACC-62 melanoma 121% | LOX IMVI melanoma 106% | SK-MEL-28 melanoma 114%

O=C(OC1CN2CCC1CC2)c1ccccc1 (stereo not drawn)
inactive: DU-145 prostate 121% | MALME-3M melanoma 120% | MDA-MB-231 breast 100% | RXF 393 renal 110% | SF-268 CNS 104% | SF-295 CNS 89.8% | SF-539 CNS 110% | UACC-257 melanoma 113% | M14 melanoma 111% | HCT-15 colon 102% | HT29 colon 106% | SNB-75 CNS 98.4% | SNB-19 CNS 104% | U251 CNS 105% | PC-3 prostate 90.9% | SK-MEL-5 melanoma 97.8% | UACC-62 melanoma 107% | LOX IMVI melanoma 102% | SK-MEL-28 melanoma 119%

NNc1ccc([N+](=O)[O-])cc1[N+](=O)[O-]
inactive: DU-145 prostate 103% | K-562 leukemia 77.2% | MALME-3M melanoma 99.8% | MDA-MB-231 breast 94.5% | SF-268 CNS 93.3% | SF-295 CNS 102% | SF-539 CNS 102% | UACC-257 melanoma 115% | M14 melanoma 105% | HCT-15 colon 94% | HT29 colon 106% | SNB-75 CNS 85.3% | SNB-19 CNS 107% | U251 CNS 106% | PC-3 prostate 107% | SK-MEL-5 melanoma 111% | UACC-62 melanoma 87.3% | LOX IMVI melanoma 87.2% | SK-MEL-28 melanoma 116%

O=[As](O)(O)c1cccnc1
inactive: DU-145 prostate 121% | K-562 leukemia 111% | MALME-3M melanoma 131% | MDA-MB-231 breast 118% | SF-268 CNS 109% | SF-295 CNS 102% | SF-539 CNS 94.1% | UACC-257 melanoma 112% | M14 melanoma 107% | HCT-15 colon 95.5% | HT29 colon 115% | SNB-75 CNS 90.8% | U251 CNS 99.1% | SK-MEL-5 melanoma 103% | UACC-62 melanoma 106% | LOX IMVI melanoma 102% | SK-MEL-28 melanoma 25.4%

O=C(c1ccc([N+](=O)[O-])cc1)N(CCCl)CCCl
inactive: DU-145 prostate 108% | K-562 leukemia 111% | MALME-3M melanoma 114% | MDA-MB-231 breast 104% | SF-268 CNS 106% | SF-295 CNS 95.6% | SF-539 CNS 108% | UACC-257 melanoma 72.7% | M14 melanoma 115% | HCT-15 colon 104% | HT29 colon 101% | SNB-75 CNS 80.6% | SNB-19 CNS 101% | PC-3 prostate 99.3% | SK-MEL-5 melanoma 99.9% | UACC-62 melanoma 111% | LOX IMVI melanoma 102% | SK-MEL-28 melanoma 105%

O=C(O)Cc1ccc(N(CCCl)CCCl)cc1
inactive: K-562 leukemia 109% | MALME-3M melanoma 102% | MDA-MB-231 breast 113% | RXF 393 renal 110%

O=P1(Nc2ncccn2)OC(CCl)=NC1c1ccc(C2N=C(CCl)OP2(=O)Nc2ncccn2)cc1 (stereo not drawn)
inactive: RXF 393 renal 101% | UACC-62 melanoma 88.6%

CCN(CC)C(=O)Oc1ccc(/C=N/NC(N)=S)nc1
inactive: DU-145 prostate 76.5% | K-562 leukemia 95.5% | MALME-3M melanoma 106% | MDA-MB-231 breast 67.8% | SF-268 CNS 68.5% | SF-539 CNS 87% | UACC-257 melanoma 79.1% | M14 melanoma 84% | HCT-15 colon 59.1% | HT29 colon 87.7% | SNB-75 CNS 59.1% | SNB-19 CNS 85.2% | PC-3 prostate 83.2% | SK-MEL-5 melanoma 77.1% | UACC-62 melanoma 85.1% | LOX IMVI melanoma 77.7% | SK-MEL-28 melanoma 89.9%

O=C(O)CNc1ccc([As](=O)(O)O)cc1
inactive: DU-145 prostate 106% | K-562 leukemia 92.4% | MALME-3M melanoma 86.9% | MDA-MB-231 breast 102% | SF-268 CNS 101% | SF-295 CNS 103% | SF-539 CNS 92.8% | UACC-257 melanoma 109% | M14 melanoma 104% | HCT-15 colon 105% | HT29 colon 103% | SNB-75 CNS 83.4% | U251 CNS 98.2% | SK-MEL-5 melanoma 101% | UACC-62 melanoma 95.5% | LOX IMVI melanoma 101% | SK-MEL-28 melanoma 108%

ClCCNCc1cccc(Cl)c1
inactive: DU-145 prostate 111% | K-562 leukemia 90% | MALME-3M melanoma 102% | RXF 393 renal 107% | SF-268 CNS 115% | SF-295 CNS 92.5% | SF-539 CNS 109% | UACC-257 melanoma 90.8% | M14 melanoma 96% | HCT-15 colon 96.4% | HT29 colon 103% | SNB-75 CNS 84.4% | U251 CNS 93.1% | PC-3 prostate 89.1% | SK-MEL-5 melanoma 102% | UACC-62 melanoma 114% | LOX IMVI melanoma 97.8% | SK-MEL-28 melanoma 97.1%

O=C(Nc1cc([As](=O)(O)O)ccc1O)c1ccccc1
inactive: DU-145 prostate 113% | K-562 leukemia 82.3% | MALME-3M melanoma 106% | MDA-MB-231 breast 83.5% | SF-268 CNS 99.7% | SF-295 CNS 113% | SF-539 CNS 93.9% | UACC-257 melanoma 87.9% | M14 melanoma 102% | HCT-15 colon 108% | HT29 colon 106% | SNB-75 CNS 105% | SNB-19 CNS 96.9% | U251 CNS 95.3% | PC-3 prostate 95.9% | SK-MEL-5 melanoma 97.9% | UACC-62 melanoma 89.8% | LOX IMVI melanoma 96.8% | SK-MEL-28 melanoma 113%
